The test system of the assay is Schizo. pombe mutants THR01, THR04, THR05, THR06 and THR07. Briefly: Drug resistance of aureobasidin-resistant mutants of Schizo. pombe. The settings on record: for sensitivity of the mutants compared with the parent strain: EMS mutants THR01, THR04, THR05, THR06, THR07 vs JY745.

Molecules are shown by their SMILES. *1 amine or outer side, *2 acyl side, *3 side chain or, on linkers, in order; H or OH if unused. Where a SMILES comes first, the peptide text is derived from it. [ ]: non-standard residue; d: D form. X1 = CC[C@@H](C)[C@@H](O[*:1])C(=O)[*:2]; NMeVal(β-OH) = CN[C@H](C(=O)O)C(C)(C)O; NMeF = CN[C@@H](Cc1ccccc1)C(=O)O; aIle = CC[C@@H](C)[C@H](N)C(=O)O; NMeV = CN[C@H](C(=O)O)C(C)C

Consider `C[C@@H]1C[C@@H]([C@H](O)CC2CC(=O)NC(=O)C2)C(=O)[C@@H](C)C1` [cycloheximide], for which the “sensitivity of the mutants compared with the parent strain” value is listed as “the same as the parent strain”.
`C[C@@H]1[C@H](O)[C@@H](C)/C=C/C=C/C=C/C=C/C=C/C=C/C=C/[C@H](O[C@@H]2O[C@H](C)[C@@H](O)[C@H](N)[C@@H]2O)C[C@@H]2O[C@](O)(C[C@@H](O)C[C@@H](O)[C@H](O)CC[C@@H](O)C[C@@H](O)CC(=O)O[C@H]1C)C[C@H](O)[C@H]2C(=O)O` [amphotericin B]: the “sensitivity of the mutants compared with the parent strain” value is “the same as the parent strain”.
For `CC[C@@H](C)[C@@H]1NC(=O)[C@@H]2CCCN2C(=O)[C@H](Cc2ccccc2)N(C)C(=O)[C@H](Cc2ccccc2)NC(=O)[C@H](C(C)C)N(C)C(=O)[C@@H]([C@H](C)CC)OC(=O)[C@H](C(C)(C)O)N(C)C(=O)[C@H](CC(C)C)NC(=O)[C@H](C(C)C)N(C)C1=O` [aureobasidin A] (cyclo(F[NMeF]P[aIle][NMeV]L[NMeVal(β-OH)][X1][NMeV])), the “resistant to (concentration of aureobasidin A)” value (EMS mutants THR01, THR04, THR05, THR06, THR07) is “more than 25 μg/ml”.
